Ab-14 heavy chain CDR variants: yeast mating affinities

Reference: Li et al. 2023, doi:10.1038/s41467-023-39022-2. File: FLAb, binding data.

The target is the same throughout: PDVDLGDISGINAS, from the HR2 region of SARS-CoV-2 spike.

Parent: Ab-14, a human scFv built as VH, the linker GGGGSGGGGSGGGGS, VL. Only the CDRs of the heavy chain vary.
VH: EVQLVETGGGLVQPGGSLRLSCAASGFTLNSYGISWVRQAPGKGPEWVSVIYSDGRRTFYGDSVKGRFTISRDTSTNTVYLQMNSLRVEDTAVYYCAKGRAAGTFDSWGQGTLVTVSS
VL: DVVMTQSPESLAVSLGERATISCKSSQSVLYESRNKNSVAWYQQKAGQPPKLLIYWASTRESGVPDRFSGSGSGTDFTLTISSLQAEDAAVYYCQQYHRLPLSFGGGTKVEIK

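This is the validation round: designs drawn from the data on random variants, tested in the same kind of assay. Several design methods are mixed in this list. Affinity was read by AlphaSeq, a pooled yeast mating assay with surface-displayed partners. Mating (16 h, 30 °C) was followed by selection of diploids and sequencing of their barcodes. Scores were corrected for input abundance and mapped to Kd with protein pairs of known affinity run in the same pool. Each pool was mated in six replicate cultures.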

Each variant is given by its three heavy chain CDRs, as the data file delimits them; those of the parent are GFTLNSYGIS, VIYSDGRRTFYGDSVK, GRAAGTFDS. Values are apparent Kd, the geometric mean of the replicates that gave a signal; lower means stronger binding. "not detected" means that the variant was in the library but no mating with the target was seen in any replicate; the authors take this as a sign of poor binding, and no number exists. The authors' rule: three or more of the six replicates give a measured affinity, fewer mean a poor binder. A sequence measured in both rounds can read differently, since the two assays cover different ranges. The parent sequence was in this pool as ten entries: three were never detected, three once, and four in most replicates, with averages from 2.2 nM to 240 nM. As a blank, each scFv also met three strains without target: over all heavy chain designs, 1% of these pairings were detected, typically at 120 nM and seldom below 7.0 nM. For each scFv, signals with the empty controls are counted beside the result.

| CDR-H1 | CDR-H2 | CDR-H3 | apparent Kd | replicates with signal | empty controls |
|---|---|---|---|---|---|
| GFSVEEYGIS | VIYADGRRVAYAKDVK | GMNFDGIVV | not detected | 0 of 6 | 0 of 18 |
| GFDLEEFGVS | VIYADGKRAAYTDSVK | GHEGAHFDV | not detected | 0 of 6 | 0 of 18 |
| GFDLNEYGIS | VIYADGMRKAYADSVK | GENAGTFDV | 170 pM | 6 of 6 | 0 of 18 |
| GFTLNDYGIS | VIYSDGRRTFYGDSVK | GRAAGTFWQ | not detected | 0 of 6 | 0 of 18 |
| GFTLNEYGIS | VIYSDGRRTMYTDSVK | GRAAGTFDS | 9.8 nM | 4 of 6 | 0 of 18 |
| GFTLNSQGIS | VIYSDGRRTFYADSVK | GQAAGAFDS | 670 nM | 1 of 6 | 0 of 18 |
| GFDLDEYGIS | VIYADGQRTAYTDSVK | GNVAGTFDM | 360 pM | 6 of 6 | 0 of 18 |
| GFDLNEYGIS | VIYADGVRKAYADDVK | GNTAGTFDV | 250 pM | 6 of 6 | 0 of 18 |
| GFDLNEYGIS | VIYADGMRTAYADNVK | GQVAGTFDL | 220 pM | 6 of 6 | 0 of 18 |
| GFDLNSYGIS | VIYSDGRRTFYGDSVK | GRNAGTFDT | 15 nM | 6 of 6 | 0 of 18 |
| GFSLNSYGIS | VIYSDGRRTFYGDSVK | GWMAGTFDS | 1.9 nM | 5 of 6 | 0 of 18 |
| GFTRESYGRS | VIYSDGRRTFYGDSVK | GRAALTLDS | not detected | 0 of 6 | 0 of 18 |
| GFNLNSYGIS | VIYSNGERTFYIDSVK | GRAAGTFDS | not detected | 0 of 6 | 0 of 18 |
| GFDLDEYGIS | VIYADGQRTAYSDSVK | GENAGTFDT | 35 nM | 6 of 6 | 0 of 18 |
| GFALDEYGIS | VIYADGKRSAYHNKVK | GGYSFLKGI | not detected | 0 of 6 | 0 of 18 |
| GFDLNEYGIS | VIYADGRRTAYSDSVK | GETAGTFVQ | 3.0 nM | 5 of 6 | 1 of 18 |
| GFDLEKYGIS | VIYADGYRSAYAQNVK | GGHAGGFHF | not detected | 0 of 6 | 1 of 18 |
| GFTLQSYGIS | VIYSDGRRTFYGDSVR | GRAAGTFDT | 23 nM | 6 of 6 | 0 of 18 |
| GFDLNEYGIS | VIYADGVRTFYTDSVK | GTNAGTFDV | 370 pM | 6 of 6 | 0 of 18 |
| GFTLNEYGIS | VIYSDGRRTFYTDSVK | GRATGTFDS | not detected | 0 of 6 | 0 of 18 |
| GNTLNDYGIS | VDYSDGRRTFYSDSVK | GTARGTFDS | not detected | 0 of 6 | 0 of 18 |
| GFTLNSYGIS | VIYSDGKRTFYGDSVK | GKVAGTFDS | 8.9 nM | 6 of 6 | 0 of 18 |
| GFTLNDYGIS | VIYSDGRRTFYGDSVK | GREAGTFDT | 250 pM | 6 of 6 | 0 of 18 |
| GEVLDEYGIS | VIYADGSRVQYTDAVK | GLLTGAFDM | not detected | 0 of 6 | 0 of 18 |
| GFSLNSYGIS | VIYADGRRTFYGDRVK | GRAAGTFKS | not detected | 0 of 6 | 1 of 18 |
| GFDLNEYGIS | VIYADGVRKAYADSVK | GNVAGTFDT | 310 pM | 6 of 6 | 0 of 18 |
| GFDIEEYGVS | VIYADGQRTMYTPNVK | GNITGLVDI | not detected | 0 of 6 | 1 of 18 |
| GFDLNEYGIS | VIYADGRRTAYIDSVK | GEIAGTFDE | 320 pM | 6 of 6 | 0 of 18 |
| GFTLNSYGIS | VIYADGRRTFYGDSVK | GRAAGQFNS | not detected | 0 of 6 | 0 of 18 |
| GFTLLSYGAS | VIYSDGRRTFYGDSVK | GDAAGGFDT | not detected | 0 of 6 | 0 of 18 |
| GFTLNSYGIS | VIYSDGRRTFYIDSVK | GRAAGTFDM | not detected | 0 of 6 | 0 of 18 |
| GFNLDEYGIS | VIYADGKRTAYADSVK | GEVAGTFDT | 3.3 nM | 6 of 6 | 0 of 18 |
| GFTLNEYGIS | VIYSDGRRTFYTDSVK | GRHAGTFES | 66 nM | 5 of 6 | 0 of 18 |
| SFTLNSYGIS | VIYSDGRRTFYIDSVK | GRIAGTFDS | not detected | 0 of 6 | 0 of 18 |
| GFDIDEFGIS | VIYADGKRTSYSDSVK | GQLGNAFDL | 160 nM | 1 of 6 | 0 of 18 |
| GFDIKEYGIS | VIYADGVRTHYADDVK | GKHTGTNMA | 110 nM | 6 of 6 | 0 of 18 |
| GFNLNSYGIS | VIYSDGRRTFYVDSVK | GRHAGTFDS | not detected | 0 of 6 | 0 of 18 |
| KFDLNNYGIS | VIYSDGRRTFYGDSVK | GRTAGTFDS | 1.5 nM | 6 of 6 | 0 of 18 |
| GFDLNSYGIS | VIYSDGRRTFYGDSVK | GQVAGTFDS | 1.4 nM | 6 of 6 | 0 of 18 |
| GFELNEYGIS | VIYSDGRRTFYGDQVK | GKTAGTFDS | 1.0 nM | 6 of 6 | 0 of 18 |
| GFALNSYGIS | VIYSDGRRTFYGDSVK | GQTAGTFDS | 11 nM | 6 of 6 | 1 of 18 |
| GFDLEEFGIS | VIYADGMRTAYSDAVK | GTFSGTVSV | not detected | 0 of 6 | 0 of 18 |
| GFTIGEYGIS | VIYADGERTAYSNAVK | GNMAGTFSF | 620 pM | 6 of 6 | 0 of 18 |
| GFTINDYGIS | VIYSDGRRTFYGDSVK | GSAAGTFTS | not detected | 0 of 6 | 0 of 18 |
| GFTLNSYGIS | VIYSDGFRTFYGDSVK | GRAAGTNDS | not detected | 0 of 6 | 0 of 18 |
| GFDLNSYGIS | VIYSDGRRTFYADHVK | GRTAGTFDS | 14 nM | 6 of 6 | 0 of 18 |
| GFSLDEMGIS | VIYADGQRSFYQASVK | GVNSGTFFV | not detected | 0 of 6 | 0 of 18 |
| KFDLNSYGIS | VIYSDGRRTAYGDSVK | GRTAGTFDS | 2.2 nM | 6 of 6 | 0 of 18 |
| GFDLNEYGIS | VIYADGKRTAYTDSVK | GTNAGTFDV | 100 pM | 6 of 6 | 1 of 18 |
| GFNLNEYGIS | VIYADGRRTFYADSVK | GGVAGTFDV | 710 pM | 5 of 6 | 0 of 18 |
| GFTLDSLGIS | VIYSDGRRTFYGRSVK | GRAAGTALS | not detected | 0 of 6 | 0 of 18 |
| GFDLNEYGIS | VIYADGRRTAYADDVK | GENAGTFDI | 3.4 nM | 6 of 6 | 0 of 18 |
| GFTLESYGIS | VIYSDGTRVFYGDSVK | GRAAGTFDL | not detected | 0 of 6 | 0 of 18 |
| GFNLNSYGIS | VIYSDGRRTFYGDAVK | GRLAGTFDS | 27 nM | 6 of 6 | 1 of 18 |
| GFTLNDYGIS | VIYSDGRRTFYIDTVK | GNAAGTFDS | 6.8 nM | 6 of 6 | 0 of 18 |
| GNTLNEYGIS | VIYSDGRRTFYGDSVK | GDAAGTFDS | 60 nM | 6 of 6 | 2 of 18 |
| GETLNEYGIS | VIYSDGRRTFYGDSVK | GRAAGTFDS | 27 nM | 6 of 6 | 1 of 18 |
| GFDLNEYGIS | VIYADGVRTAYADDVK | GETAGTFDQ | 930 pM | 6 of 6 | 0 of 18 |
| GFTLNSYGIS | VIYSDGRRVFYGDSVK | GRAAVVFDV | not detected | 0 of 6 | 1 of 18 |
| GFDLNEYGIS | VIYADGMRTFYADDVK | GEVAGTFDL | 380 pM | 6 of 6 | 1 of 18 |
| GFTLLSYGIS | VIYSDGRRTFYGDAVK | GRAAGTFDS | 280 nM | 3 of 6 | 1 of 18 |
| GFDLNEYGIS | VIYADGQRTAYTDSVK | GNEAGTFDV | 1.3 nM | 1 of 6 | 0 of 18 |
| GFDLNEYGIS | VIYADGRRTFYADSVK | GNTAGTFLN | 200 pM | 6 of 6 | 2 of 18 |
| GFTLNSYGIS | VIYADGRRTFYGDQVK | GRAAGTFMS | 1.6 nM | 6 of 6 | 0 of 18 |
| GFDLNEYGIS | VIYADGRRTAYADSVK | GNTAGTFDL | 400 pM | 6 of 6 | 0 of 18 |
| GFDLNSYGIS | VIYSDGRRTFYGDSVK | GFAAGWFYS | 94 nM | 1 of 6 | 0 of 18 |
| GFNLDEYGIS | VIYADGRRTFYADSVK | GEVAGTFDS | 470 pM | 6 of 6 | 0 of 18 |
| GFDLNEYGIS | VIYADGRRTAYSDSVK | GGNAGTFDS | 12 nM | 6 of 6 | 0 of 18 |
| GFDLNEYGIS | VIYADGRRTAYIDSVK | GENAGTFDM | 1.7 nM | 6 of 6 | 0 of 18 |
| GFSLNSYGIS | VIYSDGRRTFYADSVK | GRHAGTFDS | 25 nM | 6 of 6 | 0 of 18 |
| GFDLNEYGIS | VIYADGRRTAYSDSVK | GNTAGTFDV | 530 pM | 6 of 6 | 0 of 18 |
| GFNLNEYGIS | VIYADGHRSAYVSNVK | GHLGGTFSM | 50 nM | 5 of 6 | 0 of 18 |
| GFTLNDYGIS | VIYSDGRRTFYGDSVK | GRRNLTFIS | 85 nM | 2 of 6 | 0 of 18 |
| GFSLNEYGIS | VIYADGRRTFYGDSVK | GTAAGTFDS | 240 pM | 6 of 6 | 1 of 18 |
| GFKLNSYGIS | VIYSDGRRTFYIDSVK | GKAAGTFDS | 1.8 nM | 3 of 6 | 0 of 18 |
| GFDLNEYGIS | VIYADGRRTFYTDSVK | GQLAGTFDM | 490 pM | 6 of 6 | 0 of 18 |
| GFDLNEYGIS | VIYADGMRTHYTDSVK | GNEAGTFDV | 660 pM | 6 of 6 | 1 of 18 |
| GFDINEYGIS | VMYADGSRKVYQDKVK | GFQSGTFDT | 410 pM | 6 of 6 | 0 of 18 |